# According to ChEMBL document CHEMBL3243975 (J Med Chem, 1978):
# Organism: Sus scrofa
# Assay: Binding affinity to pig ileum opioid receptor
# Format: tissue-based
compound,measurement,value
C=CCN1CC[C@]23c4c5ccc(O)c4O[C@H]2[C@@H](O)C=C[C@H]3[C@H]1C5 [NALORPHINE],Ke,4.47 nM
